This is a selection; strong and weak results do not stand in their true shares. Calls of active or inactive are those of the source.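 How the source made its calls: active means mean inhibition of replicates at least 50% and at least half of replicates each reaching 50%; inconclusive means half or more replicates reach 50% but mean below 50%; inactive means the rest.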

In PubChem BioAssay AID623870 (Broad Institute, 2012) one finds inhibition data, which are given here for 100 compounds.

In this test the target is Transforming acidic coiled-coil-containing protein 3 (Homo sapiens) (UniProt Q9Y6A5). As to the kind of experiment: disruptors of ARNT/TACC3 protein interaction, primary screen, biochemical, AlphaScreen, single concentration (AID 623870).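 Further: 0% = complete ARNT plus TACC3 wells and 100% = ARNT alone without TACC3.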 The settings on record: AlphaScreen His-ARNT PAS-B/GST-TACC3 binding, luminescence; at 9.99 µM; stronger effect = higher value; TACC3 fragment carries E629A point mutation.
As for `COc1ccc(N)c([N+](=O)[O-])c1[N+](=O)[O-]`, the inhibition was inactive: -1.66%.

Regarding `O=P(Nc1ccccn1)(c1ccc(Br)cc1)c1ccc(Br)cc1`, the inhibition was inactive: 0.886%. Consider `CN(C)C1(CNC(=O)c2ccc(Cl)c(S(N)(=O)=O)c2)CCCCC1`, for which the inhibition is inactive: -6.25%. As for `O=P(Nc1nc2ccccc2s1)(c1ccccc1)c1ccccc1`, the figure is inactive: -10.2%; as for `C[C@H]1OP(=O)(Oc2ccccc2)[C@H](O)[C@H](O)[C@H]1N=[N+]=[N-]` (stereo not given in full), inactive: -7.34%.

With `O=[N+]([O-])c1ccc(O)c(/C=N/Nc2ccc([N+](=O)[O-])cc2[N+](=O)[O-])c1`, the inhibition was inactive: -2.76%.

Take `CC(=O)NC(SC(=S)N(C)C)C(Cl)(Cl)Cl` (stereo not given): the inhibition is inactive: 7.11%. To `O=[N+]([O-])c1ncn(CCn2cnc([N+](=O)[O-])n2)n1` belongs inactive: -32.2%; to `O=[As](O)(c1ccccc1)c1ccc(O)cc1`, inactive: -0.875%. As for `Nc1ccc([As](=O)(O)c2ccc([N+](=O)[O-])cc2)cc1`, the figure is inactive: -1.12%; as for `C(Cc1nn[nH]n1)Cc1nn[nH]n1`, inactive: -5%; as for `O=C(OC1CN2CCC1CC2)c1cccc(Cl)c1` (stereo not given), inactive: -2.97%. To `CC(C)C(=O)NC(Sc1ccccc1)C(Cl)(Cl)Cl` (stereo not given) belongs inactive: -0.038%.

For `O=P(Nc1nccs1)(c1ccccc1)c1ccccc1`, the inhibition was inactive: 1.19%.

Take `c1nnnn1CCn1cnnn1`: the inhibition was inactive: -3.09%. To `O=P1(Nc2nc3ccc(Cl)cc3s2)COc2ccccc2O1` (stereo not given) belongs inactive: -2.11%; to `CCOc1ccc(C2=NCC(CBr)S2)cc1` (stereo not given), inactive: 1.5%. For the compound `CCc1cc(O)c([N+](=O)[O-])c(C)c1[N+](=O)[O-]`, the inhibition was inactive: -11.7%.

Take `CC(C)(C)C(=O)NC(Sc1ccccc1)C(Cl)(Cl)Cl` (stereo not given): the inhibition was inactive: 2.08%. Take `N#C/C(=C\c1ccc(N(CCBr)CCBr)cc1)C(N)=O`: the inhibition is inactive: -1.59%. As to `CC(=O)c1ccc(N2CC2c2ccncc2)cc1` (stereo not given), the inhibition was inactive: -1.35%. As for `COC(=O)C1(C)COP(=O)(NCc2ccccc2)OC1` (stereo not given), the figure is inactive: 2.64%. To `Cc1ccccc1CN(C)C(=O)COC(=O)C(O)(c1ccccc1)c1ccccc1` belongs inactive: -4.44%; to `C[C@@H]1C=CCP(=O)(Oc2ccccc2)O1` (stereo not given in full), inactive: -2.16%; to `C[C@H]1OP(=O)(Oc2ccccc2)C[C@@H]2O[C@@H]21` (stereo not given in full), inactive: -0.886%.

On to `CC(=O)Nc1ccc([As](=O)(O)O)c(O)c1`, for which the inhibition was inactive: -3.64%. As for `CC(=O)Nc1ccc(Oc2c([N+](=O)[O-])cc([N+](=O)[O-])cc2[N+](=O)[O-])cc1`, the figure is inactive: 6.43%; as for `CCNC(=S)/N=C(\N)N[N+](=O)[O-]`, inactive: -8.76%; as for `O=C(NC1CCS(=O)(=O)C1)NP(=S)(Oc1ccccc1)Oc1ccccc1` (stereo not given), inactive: -7.73%. To `c1ccc(-c2nn[nH]n2)c(-c2nn[nH]n2)c1` belongs active: 66.3%; to `Cc1ccc(NP(=O)(Oc2cccc(C)c2)Oc2cccc(C)c2)nc1`, inactive: 21.8%; to `O=P1(N(CCCl)CCCl)OCCC2CCCCN21` (stereo not given), inactive: 9.12%. As for `COC(=O)c1cc2c(s1)N=C(c1ccccc1)N(C)P2(=O)N1CCOCC1` (stereo not given), the figure is inactive: 1.92%.

Take `CC(=O)NC(SC(=S)N(CC(C)C)CC(C)C)C(Cl)(Cl)Cl` (stereo not given): the inhibition is inactive: 17.9%. With `Cc1ccc(OP(=O)(Nc2ccccn2)Oc2ccc(C)cc2)cc1`, the inhibition is inactive: -1.9%. As for `O=C(OC1CN2CCC1CC2)c1ccccc1` (stereo not given), the figure is inactive: -2.23%; as for `CCC(=O)N1C2C3N(C(=O)CC)C1C1N(C(=O)CC)C(C(N1C(=O)CC)N3C(=O)CC)N2C(=O)CC`, inactive: -0.634%.

Regarding `Cc1ccccc1OP(=O)(Nc1ccccn1)Oc1ccccc1C`, the inhibition was inactive: -3.12%. As for `CC(NC(=O)COC(=O)C(O)(c1ccccc1)c1ccccc1)c1ccccc1` (stereo not given), the figure is inactive: -0.01%; as for `CN(C)C(=O)Oc1noc2ccccc12`, inactive: -0.958%; as for `O=c1c2cc([N+](=O)[O-])ccc2[nH]c2c([N+](=O)[O-])cc([N+](=O)[O-])cc12`, inactive: -13.6%. As for `O=C(O)c1ccccc1[As](=O)(O)O`, the figure is inactive: -9.51%; as for `CC(=O)Nc1ccc([As](=O)(O)O)cc1`, inactive: -9.46%; as for `CCCC1OP(N)(=O)OCC1CC` (stereo not given), inactive: -3.48%. As for `O=P(Nc1nc2ccc(Cl)cc2s1)(c1ccccc1)c1ccccc1`, the figure is inactive: 10%; as for `CCOP(=O)(Nc1ccccc1)OCC`, inactive: -11.1%. On to `Cc1cc(SC(NC(=O)c2ccc(F)cc2)C(Cl)(Cl)Cl)ncn1` (stereo not given), for which the inhibition was inactive: -5.89%.

For the compound `Cc1ccc(NP(=O)(Oc2ccccc2F)Oc2ccccc2F)nc1`, the inhibition was inactive: -5.38%. To `CN(C(=O)Cc1ccc(Cl)c(Cl)c1)[C@H]1CCCC[C@@H]1N1CCCC1` belongs inactive: -1.85%. To `CCN(N=Nc1nonc1N)c1nonc1N` belongs inactive: -2.94%; to `Nc1cccc2ccc([As](=O)(O)O)cc12`, inactive: 19.9%. To `NC(=O)c1cc([N+](=O)[O-])cc([N+](=O)[O-])c1N` belongs inactive: 7.58%; to `CN(C(=O)Cc1ccc(Cl)c(Cl)c1)[C@H]1CCCC[C@H]1N1CCCC1`, inactive: -2.42%; to `COc1ccccc1OP(=O)(Nc1ccc(C)cn1)Oc1ccccc1OC`, inactive: -1.79%.

Turning to `Clc1ccc(Cl)c(NC2=NCC(CBr)S2)c1` (stereo not given), the inhibition was inactive: -14.7%. As for `CN1CCCC(OC(=O)C(c2ccccc2)c2ccccc2)C1` (stereo not given), the figure is inactive: -1.96%. To `CC(C)CC(=O)NC(Sc1ccc(Cl)cc1)C(Cl)(Cl)Cl` (stereo not given) belongs inactive: -0.738%; to `Nc1cc(N)c2nonc2c1[N+](=O)[O-]`, inactive: 19.4%; to `Oc1ccccc1CNc1ccccn1`, inactive: -9.93%. As for `O=C(NC(Sc1ccncn1)C(Cl)(Cl)Cl)c1ccccc1` (stereo not given), the figure is inactive: 3.18%; as for `COc1ccc(C2=NCC(CBr)S2)cc1` (stereo not given), inactive: -1.41%. Take `O=[N+]([O-])c1cccc2n[nH]nc12`: the inhibition was inactive: -12.1%.

Turning to `CC(=O)N1C2C3N(C(C)=O)C1C1N(C(C)=O)C(C(N1C(C)=O)N3C(C)=O)N2C(C)=O`, the inhibition was inactive: -7.37%. As for `Cc1ccc(NP(=O)(Oc2ccccc2)Oc2ccccc2)nc1`, the figure is inactive: -5.63%; as for `CCc1nc2c(n1)c1c(non1O)c1c2no[n+]1[O-]`, inactive: -30.5%. Regarding `O=[N+]([O-])c1cc([N+](=O)[O-])c(CCNc2ccccc2)c([N+](=O)[O-])c1`, the inhibition was inactive: 8.27%. As for `C[N+]1=C2C=CC=CC=C2SC12C([N+](=O)[O-])=CC([N+](=O)[O-])=C[C-]2[N+](=O)[O-]` (stereo not given), the figure is active: 67.1%. To `CCN(/C(=N/P(=O)(N1CCOCC1)N1CCOCC1)N1CCOCC1)c1ccc(OC)cc1` belongs inactive: -8.92%; to `CC(C)=N/N=C(\N)N[N+](=O)[O-]`, inactive: -12.3%.

For `CC1CCN(C(=O)Oc2c(Cl)cc(Cl)c3cccnc23)CC1`, the inhibition is inactive: -8.16%. Turning to `O=P1(N(CCCl)CCCl)OCCCS1` (stereo not given), the inhibition was inactive: -5.48%. As for `O=C(Nc1cc([As](=O)(O)O)ccc1O)c1ccccc1`, the figure is inactive: -0.599%; as for `CC(C)(C)C(=O)NC(Sc1ccncn1)C(Cl)(Cl)Cl` (stereo not given), inactive: -2.31%. As for `O=[N+]([O-])c1ncn(CCn2ncnc2[N+](=O)[O-])n1`, the figure is inactive: 27.1%; as for `O=[N+]([O-])c1cccc(NC2=NCC(CBr)S2)c1` (stereo not given), inactive: -0.056%; as for `COC(=O)C1(C)COP(=O)(Nc2ccccc2)OC1` (stereo not given), inactive: -0.46%. To `O=C(O)CNc1ccc([As](=O)(O)O)cc1` belongs inactive: -1.05%; to `CC1CCNP(=O)(N(CCCl)CCCl)O1` (stereo not given), inactive: -1.69%. As to `CCOC(=O)Nc1ccc([As](=O)(O)O)c(O)c1`, the inhibition was inactive: -8.55%. To `CCCCOc1ccc(C(=O)NCC2(N3CCCCC3)CCCCC2)cc1OC` belongs inactive: 3.48%; to `Cc1cc(SC(NC(=O)c2ccccc2)C(Cl)(Cl)Cl)nc(C(C)C)n1` (stereo not given), inactive: -6.93%; to `CCOC(=O)Nc1cccc([As](=O)(O)O)c1`, inactive: 29.5%. For `O=[N+]([O-])c1ccc(Nc2ccc(Oc3ccc([N+](=O)[O-])cc3[N+](=O)[O-])cc2)c([N+](=O)[O-])c1`, the inhibition was inactive: 4.68%. To `O=P(Nc1ccccn1)(c1cccc2ccccc12)c1cccc2ccccc12` belongs inactive: -1.12%; to `Cc1cc(SC(NC=O)C(Cl)(Cl)Cl)ncn1` (stereo not given), inactive: -3.45%; to `COP1(=S)c2c(C)nn(CCC#N)c2N=C(c2ccc(F)cc2)N1C` (stereo not given), inactive: 3.23%. On to `O=C(COc1ccccc1)OC1CN2CCC1CC2` (stereo not given), for which the inhibition was inactive: -5.31%.

Take `O=C(Nc1ccncc1[N+](=O)[O-])c1ccc([N+](=O)[O-])cc1[N+](=O)[O-]`: the inhibition is inactive: 10.7%. To `CCOC(=O)c1ccc(NC(=O)C(C)(CCl)SC)cc1` (stereo not given) belongs inactive: -2.6%; to `O=C(OC1CN2CCC1CC2)c1cccc([N+](=O)[O-])c1` (stereo not given), inactive: -3.02%; to `CCC(C)N(CC(C)C)C(=S)SC(NC(C)=O)C(Cl)(Cl)Cl` (stereo not given), inactive: 12.7%. Consider `O=C(OC1CN2CCC1CC2)C12CC3CC(CC(C3)C1)C2` (stereo not given), for which the inhibition was inactive: -4.09%. As for `Cc1c2c(nc3ccccc13)SC(C(Cl)Cl)C2` (stereo not given), the figure is inactive: -9.34%. To `COc1ccc2nc(NP(=O)(c3ccccc3)c3ccccc3)sc2c1` belongs inactive: 2.74%. To `COc1cc(I)ccc1[As](=O)(O)O` belongs inactive: 14.5%; to `COc1ccc(CN2/C(=N\P(=O)(Oc3ccccc3)Oc3ccccc3)Cc3ccccc3C2C2CC2)cc1` (stereo not given), inactive: 0.185%; to `O=P1(N(CCCl)CCCl)Nc2ccccc2N1`, inactive: 4.17%. In the case of `O=P1(N(CCCl)CCCl)OCCCN1CCCl` (stereo not given), the inhibition was inactive: -9.74%.

`COc1ccc(N/C(=N/P(=O)(N2CCOCC2)N2CCOCC2)N2CCOCC2)cc1`: the inhibition is inactive: -4.57%. To `O=[N+]([O-])c1cc(Oc2ccc([N+](=O)[O-])cc2C(F)(F)F)cc([N+](=O)[O-])c1` belongs inactive: -4.13%.

A word on the inhibition: it is the drop in the measured response relative to a control, in per cent.
